Measurements reported in patent US20060079453A1, “Hla binding peptides and their uses” (priority 2002, published 2006).

Columns and labels:
Experiment in all cases: biochemical
Format in all cases: binding
[1] = target: HLA-B*4501 (Homo sapiens, UniProt P01889, A329T/A65T/A93T/A95T/C349S/D138N/D201E/D98Y/E176V/E187L/E204Q/E69K/H137Y/K202T/L119W/N87E/Q56L/Q94N/R155S/R180D/S121R/S35A/S48T/V127L/V306I/V36M/W191S/Y140L/Y33H/Y91S)
[2] = target: HLA-B*4402 (Homo sapiens, UniProt P01889, A223V/A65T/A93T/A95T/D201E/D98Y/E176V/E187L/E204Q/E69K/G107R/H137Y/K202T/L105A/L119I/N104T/N87E/Q56L/Q94N/R106L/R155S/R180D/S101N/S121R/S35A/S48T/T118I/V36M/W191S/Y140D/Y91S)
[3] = target: HLA-B*1801 (Homo sapiens, UniProt P01889, A329T/A93T/A95T/C349S/D201E/D54G/D98Y/E176V/E187T/E204Q/E69T/K202T/Q94N/R155S/R180L/S121R/V306I/Y140S/Y195H/Y33H/Y91S)
[4] = target: HLA-B*4002 (Homo sapiens, UniProt P01889, A65T/A93T/A95T/D138N/D201E/D98Y/E176V/E204Q/E69K/K202T/N87E/Q56L/Q94N/R180L/S48T/Y33H/Y91S)

Compound | IC50 [1] | IC50 [2] | IC50 [3] | IC50 [4]
CSCC[C@H](NC(=O)[C@H](CCCNC(=N)N)NC(=O)[C@@H]1CCCN1C(=O)CNC(=O)[C@H](CCC(=O)O)NC(=O)[C@H](CCC(=O)O)NC(=O)[C@@H](N)CCC(=O)O)C(=O)N[C@@H](Cc1ccccc1)C(=O)O | 943 nM | 2410 nM | – | –
CC(C)[C@H](NC(=O)[C@H](CCC(=O)O)NC(=O)[C@@H](N)CCC(N)=O)C(=O)N[C@H](C(=O)N[C@@H](C)C(=O)N[C@@H](CCC(=O)O)C(=O)N[C@@H](CC(=O)O)C(=O)NCC(=O)N[C@H](C(=O)O)[C@@H](C)O)[C@@H](C)O | 1840 nM | 7890 nM | 5210 nM | –
CSCC[C@H](NC(=O)[C@H](C)NC(=O)CNC(=O)[C@H](CO)NC(=O)[C@@H]1CCCN1C(=O)[C@@H](NC(=O)[C@H](CC(C)C)NC(=O)[C@@H]1CCCN1C(=O)[C@H](CCC(=O)O)NC(=O)[C@@H](N)C(C)C)[C@@H](C)O)C(=O)O | – | 4370 nM | 4650 nM | 584 nM
CC[C@H](C)[C@H](NC(=O)[C@H](CCCCN)NC(=O)[C@H](CCC(=O)O)NC(=O)[C@@H](N)CCC(=O)O)C(=O)N[C@@H](Cc1c[nH]c2ccccc12)C(=O)N[C@@H](CCC(=O)O)C(=O)N[C@@H](CCC(=O)O)C(=O)N[C@@H](CC(C)C)C(=O)N[C@@H](CO)C(=O)N[C@H](C(=O)N[C@@H](CC(C)C)C(=O)O)C(C)C | 218 nM | 1420 nM | – | –
CSCC[C@H](NC(=O)[C@H](CCC(=O)O)NC(=O)[C@H](C)N)C(=O)N[C@@H](CC(C)C)C(=O)N[C@@H](CCC(=O)O)C(=O)N[C@@H](CO)C(=O)N[C@H](C(=O)N[C@@H](CC(C)C)C(=O)O)C(C)C | 302 nM | 327 nM | 968 nM | –
CC(C)C[C@H](NC(=O)[C@H](CC(C)C)NC(=O)[C@H](CC(C)C)NC(=O)[C@H](Cc1ccccc1)NC(=O)[C@H](Cc1c[nH]cn1)NC(=O)[C@@H](NC(=O)[C@H](CC(C)C)NC(=O)[C@H](CCC(=O)O)NC(=O)[C@@H](N)C(C)C)C(C)C)C(=O)N[C@@H](CCCCN)C(=O)N[C@@H](Cc1ccc(O)cc1)C(=O)O | – | 1550 nM | – | 294 nM
CC(C)C[C@H](NC(=O)[C@H](CCC(=O)O)NC(=O)[C@@H](N)[C@@H](C)O)C(=O)N[C@@H](CCCNC(=N)N)C(=O)N[C@@H](CCCCN)C(=O)N[C@H](C(=O)N[C@@H](CCCCN)C(=O)N[C@H](C(=O)N[C@@H](CC(C)C)C(=O)NCC(=O)O)C(C)C)C(C)C | – | 3650 nM | 721 nM | 601 nM
CC(C)C[C@H](NC(=O)[C@H](C)NC(=O)[C@H](CCC(=O)O)NC(=O)CNC(=O)[C@H](CCCNC(=N)N)NC(=O)[C@H](C)NC(=O)[C@H](CCC(=O)O)NC(=O)[C@H](CC(C)C)NC(=O)CNC(=O)[C@H](CCC(=O)O)NC(=O)[C@@H](N)CCC(=O)O)C(=O)O [EEGLEARGEAL] | – | 2630 nM | – | 578 nM
CC[C@H](C)[C@H](NC(=O)[C@H](CC(N)=O)NC(=O)[C@H](C)NC(=O)[C@H](CO)NC(=O)[C@@H](NC(=O)[C@@H](NC(=O)[C@H](C)NC(=O)[C@H](CCCNC(=N)N)NC(=O)[C@@H](NC(=O)[C@H](CCC(=O)O)NC(=O)[C@@H](N)CCCNC(=N)N)C(C)C)C(C)C)[C@@H](C)O)C(=O)O | 421 nM | 1680 nM | 4490 nM | –
CC[C@H](C)[C@H](NC(=O)[C@H](CCC(=O)O)NC(=O)[C@@H](N)CCCCN)C(=O)N[C@@H](CC(C)C)C(=O)N[C@@H](CC(=O)O)C(=O)N[C@@H](CCC(=O)O)C(=O)N[C@@H](C)C(=O)N[C@@H](Cc1ccc(O)cc1)C(=O)N[C@H](C(=O)N[C@@H](CCSC)C(=O)O)C(C)C | 234 nM | 35 nM | – | –
CSCC[C@H](N)C(=O)N[C@@H](CCC(=O)O)C(=O)N[C@@H](Cc1c[nH]cn1)C(=O)N[C@@H](CC(C)C)C(=O)N[C@@H](CCCNC(=N)N)C(=O)N[C@@H](CCC(=O)O)C(=O)N[C@H](C(=O)N[C@@H](CCCNC(=N)N)C(=O)N[C@@H](C)C(=O)N[C@H](C(=O)N[C@H](C(=O)O)[C@@H](C)O)C(C)C)C(C)C | – | 795 nM | – | 2210 nM
CC[C@H](C)[C@H](NC(=O)CNC(=O)[C@H](CS)NC(=O)[C@H](CCC(=O)O)NC(=O)[C@@H](N)Cc1ccc(O)cc1)C(=O)N[C@@H](CCC(N)=O)C(=O)N[C@@H](CC(N)=O)C(=O)N[C@@H](CCC(=O)O)C(=O)N[C@@H](CC(C)C)C(=O)O | 855 nM | 452 nM | – | –
CC(C)C[C@H](NC(=O)[C@@H](NC(=O)[C@H](C)NC(=O)[C@H](CC(C)C)NC(=O)[C@H](C)NC(=O)[C@H](Cc1ccc(O)cc1)NC(=O)[C@H](CC(N)=O)NC(=O)[C@H](CC(=O)O)NC(=O)[C@H](CCC(=O)O)NC(=O)[C@@H](N)Cc1ccccc1)C(C)C)C(=O)O | – | 2840 nM | 321 nM | –
CC[C@H](C)[C@H](NC(=O)[C@H](CCC(=O)O)NC(=O)[C@H](CCC(=O)O)NC(=O)[C@H](CC(C)C)NC(=O)[C@@H](NC(=O)[C@H](CCC(=O)O)NC(=O)[C@@H](N)Cc1ccccc1)[C@@H](C)O)C(=O)N[C@H](C(=O)NCC(=O)N[C@@H](Cc1ccc(O)cc1)C(=O)N[C@@H](CC(C)C)C(=O)O)[C@@H](C)O | – | 7490 nM | – | 649 nM
CC[C@H](C)[C@H](NC(=O)[C@H](Cc1ccc(O)cc1)NC(=O)[C@H](CC(C)C)NC(=O)[C@H](Cc1c[nH]cn1)NC(=O)[C@H](CO)NC(=O)[C@@H](NC(=O)[C@@H]1CCCN1C(=O)[C@@H](NC(=O)[C@@H](NC(=O)[C@H](CCC(=O)O)NC(=O)[C@@H](N)C(C)C)C(C)C)C(C)C)[C@@H](C)CC)C(=O)O | – | 335 nM | – | 146 nM
CC[C@H](C)[C@H](NC(=O)[C@H](CCCCN)NC(=O)[C@H](CCC(=O)O)NC(=O)[C@H](CCC(=O)O)NC(=O)[C@@H]1CCCN1C(=O)[C@H](C)NC(=O)[C@H](CS)NC(=O)[C@H](CC(=O)O)NC(=O)CNC(=O)[C@H](CCC(=O)O)NC(=O)[C@@H](N)CCCNC(=N)N)C(=O)O | 146 nM | 4040 nM | 973 nM | –
CC[C@H](C)[C@H](NC(=O)[C@H](CCC(=O)O)NC(=O)[C@@H](N)CCCCN)C(=O)N[C@@H](CC(C)C)C(=O)N[C@@H](CC(=O)O)C(=O)N[C@@H](CCC(=O)O)C(=O)N[C@@H](C)C(=O)N[C@@H](Cc1ccc(O)cc1)C(=O)N[C@H](C(=O)O)C(C)C | – | 6470 nM | 1360 nM | –
CSCC[C@H](NC(=O)[C@H](CCCNC(=N)N)NC(=O)[C@@H]1CCCN1C(=O)[C@H](C)NC(=O)[C@H](CCC(=O)O)NC(=O)[C@@H](N)CC(=O)O)C(=O)N1CCC[C@H]1C(=O)N[C@@H](CCC(=O)O)C(=O)N[C@@H](C)C(=O)O | – | 6450 nM | – | 4580 nM
CC(C)C[C@H](NC(=O)[C@H](Cc1ccc(O)cc1)NC(=O)[C@H](CCC(=O)O)NC(=O)[C@@H](N)C(C)C)C(=O)N[C@@H](CC(=O)O)C(=O)N[C@@H](CC(=O)O)C(=O)N[C@@H](CCCNC(=N)N)C(=O)N[C@@H](CC(N)=O)C(=O)N[C@H](C(=O)O)[C@@H](C)O | 13500 nM | 10100 nM | 1440 nM | –
CC(C)C[C@H](NC(=O)[C@H](Cc1ccc(O)cc1)NC(=O)[C@@H](NC(=O)[C@@H](NC(=O)[C@H](CC(N)=O)NC(=O)[C@H](CCC(N)=O)NC(=O)[C@H](C)NC(=O)[C@H](CCC(=O)O)NC(=O)[C@@H]1CCCN1C(=O)[C@H](CCC(=O)O)NC(=O)[C@@H](N)CS)[C@@H](C)O)[C@@H](C)O)C(=O)O | – | 3420 nM | 962 nM | –
